Article PMC4656118 (Journal of biomolecular screening, 2014)
pKd: −log10 of the molar value. Values joined by “and” are separate entries in the source; they are usually repeats but may differ in a detail not shown here. Equal entries are not always repeated. Where two headings read alike, the source gives them in different places.

Columns and labels:
[1] = molecular target: purified chicken nucleosomes (from chicken erythrocytes) (chicken (endogenous in erythrocytes)); assay: fluorescence polarisation
[2] = molecular target: purified chicken nucleosomes (from chicken erythrocytes) (chicken (endogenous in erythrocytes)); assay: fluorescence polarisation; remark: listed apart in the source
[3] = molecular target: trypsin digested nucleosomes lacking histone tails (chicken (endogenous in erythrocytes)); assay: fluorescence polarisation
[4] = molecular target: purified chicken nucleosomes (histone H2A/H2B binding site)
[5] = test system: FITC-LANA 1-23 peptide (tracer) (Kaposi's sarcoma-associated herpesvirus); assay: fluorescence anisotropy
[6] = test system: FITC-LANA 1-23 peptide (tracer) (Kaposi's sarcoma-associated herpesvirus); assay: fluorescence anisotropy; remark: listed apart in the source

FITC LANA1-23 peptide tracer
pKd [1]: 6.74
pKd [2]: 6.61 and 6.55
pKd [3]: 6.59

[FITC]-Beta alanine-MAPPGMRLRSGRSTGAPLTRGSC-[NH2] [FITC LANA1-23]
pKd ([4]; read-out: Kd for LANA peptide binding after trypsin digestion of nucleosomes): 6.59
pKd ([4]; read-out: Kd for LANA peptide binding when protease inhibitor was added prior to trypsin): 6.55
pKd ([4]; read-out: Kd for LANA tracer binding to intact nucleosomes): 6.61
pKd ([4]; read-out: Kd for N-LANA peptide binding to its histone H2A/H2B binding site): 6.74

chicken erythrocyte nucleosomes, intact
pKd [5]: 6.74
pKd [6]: 6.61

chicken nucleosomes, trypsin inactivated (inhibitor added first)
pKd [6]: 6.55

chicken nucleosomes, trypsin-digested (histone tails removed)
pKd ([6]; histone tails removed by partial trypsin digestion, DNA not modified): 6.59
